As usually defined, the pEC50 is the EC50 on a negative log10 scale, so that one unit is a factor of ten. By IC50 is commonly meant the concentration that inhibits the measured activity by half. High values mean weaker potency, low ones greater potency. The pIC50 is the IC50 on a negative log10 scale, so that one unit is a factor of ten.

Chains of the proteins cited; added tags and fusions are not shown. Lines headed by an entry give the natural chain unless they say otherwise; changes in a name come on top.
UniProt P35462, whole entry: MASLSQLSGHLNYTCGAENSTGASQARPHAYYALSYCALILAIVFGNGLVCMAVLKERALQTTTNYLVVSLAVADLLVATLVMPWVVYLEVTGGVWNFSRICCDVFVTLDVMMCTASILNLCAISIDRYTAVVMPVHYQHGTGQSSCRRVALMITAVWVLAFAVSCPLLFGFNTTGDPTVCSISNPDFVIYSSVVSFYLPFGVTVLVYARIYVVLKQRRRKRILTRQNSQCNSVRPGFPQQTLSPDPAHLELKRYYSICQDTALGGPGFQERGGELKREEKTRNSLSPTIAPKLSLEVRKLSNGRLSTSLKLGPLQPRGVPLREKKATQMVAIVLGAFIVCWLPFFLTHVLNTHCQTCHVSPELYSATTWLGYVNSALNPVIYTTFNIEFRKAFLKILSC
UniProt P27338, whole entry: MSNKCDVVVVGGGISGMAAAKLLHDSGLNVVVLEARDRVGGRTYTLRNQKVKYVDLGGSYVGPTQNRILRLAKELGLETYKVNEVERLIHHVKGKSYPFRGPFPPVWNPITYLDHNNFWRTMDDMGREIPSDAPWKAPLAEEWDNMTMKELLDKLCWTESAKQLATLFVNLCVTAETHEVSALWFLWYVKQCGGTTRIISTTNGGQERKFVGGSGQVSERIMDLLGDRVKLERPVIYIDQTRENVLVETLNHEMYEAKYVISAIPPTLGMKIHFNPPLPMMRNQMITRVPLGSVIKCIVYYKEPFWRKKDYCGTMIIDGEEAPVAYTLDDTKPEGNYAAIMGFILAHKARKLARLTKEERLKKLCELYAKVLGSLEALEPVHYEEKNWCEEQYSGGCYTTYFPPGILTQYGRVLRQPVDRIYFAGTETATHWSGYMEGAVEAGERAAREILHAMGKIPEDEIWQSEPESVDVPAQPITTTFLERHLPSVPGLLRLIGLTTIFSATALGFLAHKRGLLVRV
UniProt P21397, whole entry: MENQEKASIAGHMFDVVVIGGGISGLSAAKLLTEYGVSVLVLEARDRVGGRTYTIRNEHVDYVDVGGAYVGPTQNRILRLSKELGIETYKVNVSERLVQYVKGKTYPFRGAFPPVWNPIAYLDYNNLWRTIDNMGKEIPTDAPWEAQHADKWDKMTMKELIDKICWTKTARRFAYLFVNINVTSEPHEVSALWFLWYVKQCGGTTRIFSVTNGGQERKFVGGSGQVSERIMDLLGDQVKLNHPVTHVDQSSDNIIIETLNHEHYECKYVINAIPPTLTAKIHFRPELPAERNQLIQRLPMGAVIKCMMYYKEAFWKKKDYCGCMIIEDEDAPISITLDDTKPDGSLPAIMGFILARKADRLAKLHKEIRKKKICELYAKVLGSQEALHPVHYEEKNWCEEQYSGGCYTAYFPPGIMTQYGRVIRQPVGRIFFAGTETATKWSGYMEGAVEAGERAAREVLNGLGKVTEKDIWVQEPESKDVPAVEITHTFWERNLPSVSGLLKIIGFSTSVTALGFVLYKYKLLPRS

pEC50, pIC50: −log10 of the molar value.

Data set [1] concerns the target dopamine D3 receptor (D3R) (Homo sapiens, UniProt P35462). Put plainly: FRET-based cAMP agonist effect assay (D3R). As to conditions: read-out: EC50, agonist effect assay (D3R), CHO-K1 hD3R.
A further data set addresses hMAO-B (Homo sapiens, UniProt P27338). In words: In vitro hMAO-inhibitory assay (MAO-Glo), hMAO-B. The conditions noted are these: mean ± SD of triplicate experiments. It is filed as biochemical. The source says:
(§1) A homogeneous luminescent assay using the MAO-Glo™ assay kit (Promega, Madison, WI, USA) was used to evaluate the hMAO-inhibitory activity of icariin and its metabolites according to the manufacturer’s protocol.

The next data set has as its target hMAO-A (Homo sapiens, UniProt P21397). In words: In vitro hMAO-inhibitory assay (MAO-Glo), hMAO-A. As to conditions: mean ± SD of triplicate experiments. It is filed as biochemical.
From the text: as §1

Another data set deals with T1, Human D3R (Homo sapiens, UniProt P35462).
T1 construct: expressed in transfected cells; host or cells: CHO-K1 (membrane homogenates)
As to conditions: [3H]methyl-spiperone competition; read-out: IC50, radioligand binding assay (D3R). The method, then:
Next, 10 μM (f.c.) (+)-butaclamol (for D3R) and 1 μM (f.c.) atropine (for M2R) were used to detect nonspecific binding in the respective assays. The binding affinity of a test compound was calculated as the inhibition (%) of control (radioligand)-specific binding.

For data set [2] the following is noted: cited from earlier work.

In the case of icariside II, the pEC50 in data set [1] was 4.88. Moreover, the IC50 on hMAO-B and on hMAO-A was greater than 500 µM throughout. The pIC50 at Human D3R was 4.71. Further, in data set [2], the blood-brain barrier penetration entry is on record as “could penetrate the blood-brain barrier (BBB) readily”.

The values above are taken from paper PMC10647531, “Effects of Icariin and Its Metabolites on GPCR Regulation and MK-801-Induced Schizophrenia-Like Behaviors in Mice” (Molecules, 2023).
